Molecular target: PARP7 (Homo sapiens, UniProt Q7Z3E1)
Assay: PARP7 inhibitory activity assay (histone-coated 384-well plate, chemiluminescence)
Settings: read-out: PARP7 IC50

Chains of the proteins cited; added tags and fusions are not shown.
UniProt Q7Z3E1, whole entry: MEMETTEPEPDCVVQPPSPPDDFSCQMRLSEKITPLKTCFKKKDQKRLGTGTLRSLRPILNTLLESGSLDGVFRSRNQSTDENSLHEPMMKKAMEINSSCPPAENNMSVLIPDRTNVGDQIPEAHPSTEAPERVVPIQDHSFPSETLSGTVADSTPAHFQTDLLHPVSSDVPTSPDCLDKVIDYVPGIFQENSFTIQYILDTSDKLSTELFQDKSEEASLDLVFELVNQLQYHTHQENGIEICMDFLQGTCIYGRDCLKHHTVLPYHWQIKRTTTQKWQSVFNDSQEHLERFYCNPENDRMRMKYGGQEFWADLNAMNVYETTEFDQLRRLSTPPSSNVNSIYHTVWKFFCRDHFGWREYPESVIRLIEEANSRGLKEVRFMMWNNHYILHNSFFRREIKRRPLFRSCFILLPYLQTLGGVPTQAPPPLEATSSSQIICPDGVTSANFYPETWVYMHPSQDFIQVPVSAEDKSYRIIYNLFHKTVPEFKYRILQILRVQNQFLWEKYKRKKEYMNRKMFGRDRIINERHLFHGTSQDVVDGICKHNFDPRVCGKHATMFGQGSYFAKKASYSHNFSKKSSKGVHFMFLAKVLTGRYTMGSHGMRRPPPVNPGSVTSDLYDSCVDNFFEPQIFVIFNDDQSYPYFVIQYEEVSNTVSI

Row | Compound | IC50
1 | CC(NC1CC(C(=O)N2CCN(c3ncc(C(F)(F)F)cn3)CC2)C1)c1cc(C(F)(F)F)c(=O)[nH]n1 (centres unmarked) | 10 to 100 nM
2 | CC(c1cc(C(F)(F)F)c(=O)[nH]n1)N1CC(C(=O)N2CCN(c3ncc(C(F)(F)F)cn3)CC2)C1 (centres unmarked) | 10 to 100 nM
